# Measured affinities in a library of Ab-14 heavy chain variants

Source: Li et al. 2023 (doi:10.1038/s41467-023-39022-2), MIT Lincoln Laboratory and A-Alpha Bio; data file from the FLAb repository.

All variants were tested on one target, the spike HR2 peptide PDVDLGDISGINAS (SARS-CoV-2).

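The starting antibody came from a phage panning campaign against this peptide. These sequences belong to a second round, designed from the earlier measurements on random variants of the parent. Their group label is 14H_GPLM_HC (GPLM: also part of the Gaussian process libraries; HC: hill climbing; a sequence that several methods proposed may carry one label only). Affinity was read by AlphaSeq, a pooled yeast mating assay with surface-displayed partners. Mating (16 h, 30 °C) was followed by selection of diploids and sequencing of their barcodes. Each replicate has its own calibration line, from reference interactions of the BCL2 family. Each pool was mated in six replicate cultures.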

The variants keep the light chain, the linker and the frameworks of Ab-14 (scFv order VH, a (GGGGS)3 linker, VL).
VH: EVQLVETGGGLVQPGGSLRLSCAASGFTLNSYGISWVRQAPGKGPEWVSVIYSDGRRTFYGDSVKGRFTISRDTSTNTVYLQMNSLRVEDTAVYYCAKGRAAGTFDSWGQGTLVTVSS
VL: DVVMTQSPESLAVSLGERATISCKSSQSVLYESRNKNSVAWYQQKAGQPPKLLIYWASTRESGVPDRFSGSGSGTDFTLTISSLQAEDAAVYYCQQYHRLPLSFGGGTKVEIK

Substitutions are numbered in sequence along the VH above, starting at 1 (not Kabat). Numbers give log10(Kd / nM), so 0 is 1 nM and 3 is 1 µM. Smaller is tighter. An entry "n.d." has no value in the source: the pair was not observed among the diploids in that replicate. This suggests poor binding but is not conclusive.

| # | changes | log10 Kd, replicates | empty controls |
|---|---|---|---|
| 1 | N30M G61I R100Q A101L | n.d. / n.d. / n.d. / n.d. / n.d. / n.d. | 0 of 18 |
| 2 | S31D G61I D106T | n.d. / n.d. / n.d. / n.d. / n.d. / n.d. | 0 of 18 |
| 3 | G61S G103V S107N | n.d. / n.d. / n.d. / n.d. / n.d. / n.d. | 0 of 18 |
| 4 | S31E G61H A101F | 0.27 / 0.60 / 0.18 / -0.66 / 0.78 / 0.10 | 1 of 18 (0.51) |
| 5 | S31E G103V S107W | n.d. / n.d. / n.d. / n.d. / n.d. / n.d. | 0 of 18 |
| 6 | T28S S31E G61S T104K | 1.43 / 0.35 / -0.38 / -0.48 / 0.07 / -0.20 | 1 of 18 (2.25) |
| 7 | S31E G61S A102G D106T | n.d. / n.d. / n.d. / n.d. / n.d. / 2.29 | 0 of 18 |
| 8 | T28D F59A D106H | 0.36 / -0.12 / 0.48 / -0.11 / -0.09 / 0.23 | 1 of 18 (1.64) |
| 9 | T28S S31E G103V S107Q | n.d. / n.d. / n.d. / n.d. / n.d. / n.d. | 0 of 18 |
| 10 | T28D R56L A101T | 0.00 / -0.02 / 0.02 / 0.01 / -0.08 / 0.10 | 0 of 18 |
| 11 | S31E R56I A101Q D106I | n.d. / n.d. / n.d. / n.d. / n.d. / n.d. | 0 of 18 |
| 12 | S31D F59Q G61I D106W | n.d. / n.d. / n.d. / n.d. / n.d. / n.d. | 0 of 18 |
| 13 | T28S S31D A101Q D106I | -0.18 / -0.75 / -0.80 / -0.38 / -1.20 / -0.51 | 0 of 18 |
| 14 | N30H G61D R100Q A101L | n.d. / 2.43 / 2.86 / 2.41 / 2.33 / 2.06 | 0 of 18 |
| 15 | T28H S31E G103V S107Q | n.d. / n.d. / n.d. / n.d. / n.d. / n.d. | 0 of 18 |
| 16 | S31D A101C S107T | 1.82 / n.d. / n.d. / 2.68 / n.d. / 2.39 | 0 of 18 |
| 17 | S31E G103V S107R | n.d. / n.d. / n.d. / n.d. / n.d. / n.d. | 0 of 18 |
| 18 | S31Q R56T G61S | 0.54 / 0.20 / 0.09 / 0.18 / 0.27 / 0.44 | 0 of 18 |
| 19 | T28D G61S A102G T104K | 0.83 / 1.73 / 1.46 / 1.21 / 1.35 / 0.90 | 0 of 18 |
| 20 | T28D S31Q R56M G61S | 1.52 / 0.15 / n.d. / 1.17 / 0.49 / 1.79 | 0 of 18 |
| 21 | T28G S31E G61C A101T | 0.92 / 0.64 / 1.04 / 1.20 / 0.52 / 0.80 | 0 of 18 |
| 22 | F27N S31E G61T A101F | n.d. / n.d. / n.d. / n.d. / n.d. / n.d. | 0 of 18 |
| 23 | N30D S107V | n.d. / 0.98 / 0.44 / 1.63 / 1.14 / 1.14 | 0 of 18 |
| 24 | S31E D106M S107F | n.d. / n.d. / n.d. / n.d. / n.d. / n.d. | 0 of 18 |
| 25 | N30D D106T S107L | n.d. / n.d. / n.d. / n.d. / n.d. / n.d. | 0 of 18 |
| 26 | T28W S31E G103V S107Q | n.d. / n.d. / n.d. / n.d. / n.d. / n.d. | 0 of 18 |
| 27 | T28K S31E G61T A101F | 0.73 / -0.01 / 0.49 / 0.23 / -0.07 / 0.04 | 0 of 18 |
| 28 | T28E S31E G61I A101T | -0.14 / -0.07 / 0.02 / -0.10 / -0.07 / 0.06 | 1 of 18 (2.51) |
| 29 | S31Q R56Q G61S | 0.30 / 0.27 / -0.25 / -0.18 / 0.14 / 0.03 | 1 of 18 (1.88) |
| 30 | T28D R56Q G61V A101T | 0.71 / 0.28 / 0.64 / 0.72 / 0.56 / 0.26 | 1 of 18 (2.30) |
| 31 | G61S R100V A102G | n.d. / n.d. / n.d. / n.d. / n.d. / n.d. | 0 of 18 |
| 32 | T28Q S31E G61S R100E | 0.39 / 0.50 / 0.57 / 1.43 / 0.50 / 0.93 | 0 of 18 |
| 33 | G26M G61D R100Q A101L | n.d. / n.d. / 0.99 / n.d. / n.d. / n.d. | 0 of 18 |
| 34 | S31Q R56M G61S A101L | 0.55 / 0.32 / 0.48 / 0.55 / 0.36 / 0.49 | 1 of 18 (2.39) |
| 35 | T28G S31D F59Q G61I | 0.74 / 0.91 / 1.17 / 1.38 / 1.16 / 1.06 | 1 of 18 (1.89) |
| 36 | T28N S31E G61T A101M | -0.18 / 0.10 / -0.34 / -0.51 / 0.89 / -0.02 | 0 of 18 |
| 37 | S31E D106R S107V | n.d. / n.d. / n.d. / 2.56 / n.d. / n.d. | 0 of 18 |
| 38 | T28R S31E G103V S107Q | n.d. / n.d. / n.d. / n.d. / n.d. / n.d. | 0 of 18 |
| 39 | G61T R100K A101L | 1.87 / 0.99 / 1.81 / 1.20 / 0.87 / 1.39 | 1 of 18 (2.66) |
| 40 | G61D R100Q A101V T104M | n.d. / n.d. / n.d. / n.d. / n.d. / n.d. | 0 of 18 |
| 41 | G61S R100M A101V | 0.60 / 0.03 / 0.25 / -0.08 / 0.04 / 0.12 | 1 of 18 (3.04) |
| 42 | R56H G61T R100Q A101L | 1.64 / n.d. / 1.72 / n.d. / 1.15 / n.d. | 1 of 18 (2.21) |
| 43 | S31E G61Q A102G | 0.90 / 1.00 / 0.58 / 0.61 / 0.57 / 1.25 | 0 of 18 |
| 44 | G61I R100Q A101L S107R | n.d. / n.d. / 1.35 / 2.04 / 1.13 / 2.40 | 1 of 18 (1.44) |
| 45 | T28S S31Q G61S T104H | n.d. / n.d. / n.d. / n.d. / n.d. / n.d. | 1 of 18 (2.81) |
| 46 | S31E G61T A101E S107L | 0.12 / 0.04 / 0.38 / -0.04 / 0.63 / 0.36 | 0 of 18 |
| 47 | S31E G61T S63A A101T | n.d. / 0.58 / 0.62 / 0.47 / 0.44 / 1.06 | 0 of 18 |

The 4 strongest on average among those seen in every replicate, once more:

changes	log10 Kd, replicates	empty controls
T28S S31D A101Q D106I	-0.18 / -0.75 / -0.80 / -0.38 / -1.20 / -0.51	0 of 18
T28E S31E G61I A101T	-0.14 / -0.07 / 0.02 / -0.10 / -0.07 / 0.06	1 of 18 (2.51)
T28N S31E G61T A101M	-0.18 / 0.10 / -0.34 / -0.51 / 0.89 / -0.02	0 of 18
T28D R56L A101T	0.00 / -0.02 / 0.02 / 0.01 / -0.08 / 0.10	0 of 18

The authors' rule: three or more of the six replicates give a measured affinity, fewer mean a poor binder. The range of this assay differs from that of the first round, and the authors advise against merging the two. Nonspecific signal, from three strains lacking the peptide, appeared in 1% of pairings of all heavy chain designs, centred on 2.08 (5% of these signals below 0.84); values are not corrected for it. The control count says in how many pairings with the empty strains this scFv gave a signal, with their mean in brackets.